Biological target: human endothelial constitutive NOS (eNOS) (Homo sapiens (Human), UniProt P29474)
Test: Human eNOS enzyme assay, radiometric;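 also: recombinant human eNOS expressed in baculovirus-infected Sf9 cells, activity read as [3H]L-arginine turned into [3H]L-citrulline, the product isolated on ion-exchange resin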
Conditions: read-out: eNOSh

## N=C(Nc1ccc2[nH]cc(C3=CN4CCC3CC4)c2c1)c1cccs1 [Compound 125, N-(3-(1-azabicyclo[2.2.2]oct-2-en-3-yl)-1H-indol-5-yl)thiophene-2-carboximidamide]
  IC50: 105 µM

From US8586620B2, “Substituted indole compounds having NOS inhibitory activity” (NeurAxon, Inc., priority 2005, dated 2013)
